Values of other authors as cited in patent US20220023433A1, “Saponin Conjugates” (Sapreme Technologies B.V., priority 2018, published 2022).

Conditions: monkeys; cited from earlier work

For ado-trastuzumab emtansine, the “enhancement of the tolerable dose of DM1 by conjugation to trastuzumab” value is listed as “at least two-fold”.
